Assay results: patent US9133208B2, “Radiolabelled rotenone derivatives and their use in SPECT imaging” (priority 2011, dated 2015)

Test system: rabbit hearts
Experiment: Myocardial distribution in isolated retrograde perfused (Langendorff) rabbit heart
Design: species or system New Zealand White rabbits
Settings: flow rate 1.7 ml/min/g LV, FIG. 9, qualitative
Experimental: Preparation of retrograde perfusion (Langendorff) was performed as previously described (R. C. Marshall, P. Powers-Risius, B. W. Reutter, S. E. Taylor, H. F. VanBrocklin, R. H. Huesman, T. F. Budinger J Nucl Med. 2001; 42:272-281, which is incorporated by reference herein) using hearts from 1.5-2.5 kg male New Zealand White rabbits (Charles River, Wilmington Mass.). Following an injection of heparin (5 mg/kg) and median sternotomy, hearts were excised keeping the ascending aorta and aortic branches, lungs and thymus intact. The hearts were immediately placed into an ice-cold bath containing modified Tyrode's solution ([…], 1 mM MgCl2, 28 mM NaHCO3, 0.44 mM NaH2PO4, 2.5 mM CaCl2, 6 mM KCl, 5 mM glucose, […] with 22 g/L BSA and aerated with 95% O2/5% CO2) and thymus and fatty tissue were quickly removed. The hearts were then suspended on an aortic cannula and perfused with pre-warmed modified Tyrode's buffer through a water jacketed, temperature regulated Langendorff perfusion system (Radnotti, Calif., USA) at a constant flow rate. […]
Following final preparation, the left ventricular balloon was inflated to achieve an end-diastolic pressure of approximately 8-10 mmHg with a constant systolic pressure held between 60-80 mm Hg. […] Perfusion and ventricular pressures were monitored throughout the experiment using a BioPac data acquisition system (BioPac, Montreal QC). […]

## ^131I-albumin: reference tracer, non-diffusable tracer that remains in the intravascular space
  initial peak fractional venous appearance rate: higher venous effluent rate
